# Test system: HAP1 MTAP-deleted cell line
# Assay: SDMA in-cell western assay, HAP1 MTAP-deleted
# Assay type: cell-based
# Conditions: IC50 ratio HAP1 MTAP-intact / HAP1 MTAP-deleted
# Source text: Table 1 also indicates IC50 values in an MTAP-isogenic cell line pair for exemplary compounds in an SDMA in-cell western assay (columns 7-8). HAP1 MTAP-intact is a cell line in which endogenous levels of MTAP are expressed, and HAP1 MTAP-deleted is an MTAP-null cell line.
structure (smiles),measurement,value
"Cc1cc(NC(=O)C(=O)N2C[C@@H](C)CC[C@@H]2c2ccc3sc(CCN(C)C)nc3c2)cnc1N (single isomer, unassigned) [Compound 1279]",MTAP intact/ deleted ratio,C (an IC50 ratio of less than 3 fold)
